Test results as given in article PMC6123382, “Phosphorylation of the Amyloid-Beta Peptide Inhibits Zinc-Dependent Aggregation, Prevents Na,K-ATPase Inhibition, and Reduces Cerebral Plaque Deposition” (Frontiers in Molecular Neuroscience, 2018).

Legend:
[1] = target: Na+/K+-ATPase (α1β1 isozyme) from duck salt glands (duck); test: ITC; peptide (100-200 μM, syringe) injected into Na+/K+-ATPase (10-20 μM, cell); 25°C; 10 mM imidazole pH 7.5, 130 mM NaCl, 30 mM KCl, 3 mM MgCl2; fit with one set of binding sites
[2] = presence of Zn2+, cited from earlier work
From the text: The amyloid-beta peptide (Aβ) is a normal subnanomolar component of biological fluids ([Masters and Selkoe, 2012]); however, its deposition in the form of amyloid plaques is one of the hallmarks of AD ([Selkoe and Hardy, 2016]). Amyloid plaques are associated with neuronal loss and cognitive impairment ([Musiek and Holtzman, 2015]), and they enhance the tau pathology ([He et al., 2017]). The trigger of the pathologic Aβ aggregation in AD is unknown ([Musiek and Holtzman, 2015]); however, in animal models of AD, the conversion of a monomeric Aβ into fibrillar aggregates, through neurotoxic olig ... || Recently, it has been shown that Aβ undergoes phosphorylation at Ser8 both in vitro and in vivo ([Kumar et al., 2011], [2013]). […] It was the first evidence of the facilitation of cerebral amyloidosis by a synthetic Aβ species injected int ...

[3] = target: Na^+/K^+-ATPase (α1β1 isozyme) (Anas platyrhynchos, UniProt Q6TG02+Q7ZYV1); test: Isothermal titration calorimetry of binding to Na+/K+-ATPase; design: species or system duck (salt glands); settings: ITC, 25°C, 10 mM imidazole buffer (pH 7.5), 130 mM NaCl, 30 mM KCl, 3 mM MgCl2
Protocol: The purified preparation of Na^+/K^+-ATPase (α1β1 isozyme) was obtained from duck salt glands as described elsewhere ([Petrushanko et al., 2016]).
The thermodynamic parameters of amyloid peptides binding to Na^+/K^+-ATPase were measured using a MicroCal iTC200 instrument, as described elsewhere ([Mitkevich et al., 2012]; [Petrushanko et al., 2014]). Experiments were carried out at 25°C in 10 mM imidazole buffer (pH 7.5), containing 130 mM NaCl, 30 mM KCl, 3 mM MgCl2. Aliquots (2.6 μl) of ligands were injected into a 0.2-ml cell containing protein solution to achieve a complete binding isotherm. Protein concentration in the cell ranged from 10 to 20 μM, and ligand concentration in the syringe ranged from 100 to 200 μM. The resulting titration curves were fitted using the MicroCal Origin software, assuming one set of binding sites. Affinity constants (Ka), enthalpy variations (ΔH) and stoichiometry of binding (N) were determined and the Gibbs energy (ΔG) and entropy variations (ΔS) were calculated from the equation: ΔG = −RTlnKa = ΔH-TΔS.

With “β-amyloid peptide 1–42 phosphorylated at Ser8 (pS8-Aβ42)” the dH [1] was -2.54 kcal/mol and the stoichiometry N [1] was 1.
Work on β-amyloid peptide 1–42 (Aβ42) yielded a stoichiometry N [1] of 1.
In the case of “pS8-Aβ16: metal-binding domain of pS8-Aβ (DAEFRHDSGYEVHHQK; Amyloid-beta phospho-Ser8; UniProt P05067 672-687, looked up, fragment)”, the “zinc-induced oligomerization of metal-binding domain” value ([2]; ref Istrate et al., 2016) is listed as “do not give rise to larger oligomers and aggregates” and the “zinc-induced dimer formation of metal-binding domain” value ([2]; ref Kulikova et al., 2014) is listed as “forms stable dimers”.
For “Aβ16: N-terminal zinc-binding (metal-binding) domain of Aβ, residues 1–16 (DAEFRHDSGYEVHHQK)”, the “detectability of binding to Na+,K+-ATPase” value [3] was “but not for the 1–16 fragment”.
